What was measured:
[1] = tested on: neuroblastoma NT2 cell cultures; settings: NT2 cells; final concentration in the medium up to 200 mg/ml
[2] = tested on: lymphocytic Jurkat cell cultures; settings: Jurkat cells; final concentration in the medium up to 200 mg/ml

polyoxyethanyl-α-tocopheryl succinate [TPGS]
adverse effects on cell growth or viability [1]: toxicity
adverse effects on cell growth or viability [2]: toxicity
